Data as given in patent US9441014B2, “Skin permeating and cell entering (SPACE) peptides and methods of use thereof” (The Regents of the University of California, priority 2010, dated 2016).

Test system: dermis
Conditions: phage extracted from dermis

Sequence | occurrence of leading sequences in the fifth round of dermis screen [%]
ACKTGSHNQCG [AC-KTGSHNQ-CG] | 30
ACMGPSSMLCG [AC-MGPSSML-CG] | 30
ACTDPNQLQCG [AC-TDPNQLQ-CG] | 20
